Literature values in publication PMC3074252 (Journal of medicinal chemistry, 2011).

Details: ALS patients; cited from earlier work

## Nc1nc2ccc(OC(F)(F)F)cc2s1 [riluzole]
  extension of median survival: 2–3 months
